Measured values as given in US12465660B2, “Compositions and methods for cancer imaging and radiotherapy” (VECT-HORUS, priority 2017, dated 2025).

Tests used:
[1] = system: NCI-H295R adrenal cancer xenograft; settings: mouse, in vivo, iv
Procedure: Gallium was obtained in ^68Ga^3+ form using a commercial TiO2-based ^68Ge/^68Ga generator (Obninsk). […] Animal studies were performed according to the protocols approved by the Aix-Marseille Ethic comity (Comity 14). Four weeks old BALB/c Nude Mouse male were obtained from Charles River Inc. Mice were implanted subcutaneously in the upper flanks with NCI-H295R cells (7×10^6) in 150 μL of complete medium containing 50% Matrigel (Corning). Mice were used for imaging experiments when the tumours reached a volume comprised between 700-1500 mm^3. Animals received the test substance by intravenous single bolus at dose of 10±4MBq of ^68Ga-CH44 or ^68Ga-CH40. Six mice were implanted with NCI-11295R adrenal cancer cells. On day 14 following implantation, the animals were administered intravenously at 24 hours interval with ^18F-FDG, ^68Ga-CH44 and ^68Ga-CH40, respectively. On days 32 post-implantation, the animals were administered intravenously with ^68Ga-CH44 followed 24 hours later with ^68Ga.-[…]. Following each administration, the biodistribution in the adrenal cancer xenograft and other tissues was assessed using PET-imaging. Groups (n=5-7) of nude mice were i.v. administered 10±4MBq of ^68Ga-CH44 and PET/CT scans were acquired at 1 h post injection (p.i.). PET and PET/CT studies were performed on a microPET/microCT rodent model scanner (nanoPET/CT®, Mediso). […]

[2] = system: Pk4a pancreatic cancer xenograft; settings: mouse, in vivo
Procedure: Gallium was obtained in ^68Ga^3+ form using a commercial TiO2-based ^68Ge/^68Ga generator (Obninsk). […] Animal studies were performed according to the protocols approved by the Aix-Marseille Ethic comity (Comity 14). Four week's old BALB/c Nude Mouse male were obtained from Charles River Inc. Mice were subcutaneously implanted between the shoulders with Pk4a cells (1×10^6) in 150 μL of complete medium. Mice were used for imaging experiments when the tumours reached a volume comprised between 700-1500 mm^3. Animals received the test substance by intravenous single bolus at dose of 10±4 MBq of ^68Ga-CH44 and ^68Ga-CH40. Mice (n=5 to 6) were implanted with Pk4a pancreatic cancer cells. On day 4 following implantation, the animals were administered intravenously at 24 hours interval with ^68 Ga-CH44 and ^68Ga-CH40, respectively. On day 12 post-implantation, the animals were administered intravenously with ^68Ga.-CH44 followed 24 hours later with ^68Ga-CH40. Groups (n=5 to 7) of nude mice were i.v. administered 10±4 MBq of ^68Ga-CH44 and PET/CT scans were acquired at 1 hour post injection (p.i.). PET and PET/CT studies were performed on a microPET/microCT rodent model scanner (nanoPET/CT®, Mediso). Anesthesia was induced with 5% isoflurane and maintained at 1.5%. […]

## ^18F-FDG
[1]
  accumulation at the tumour site (PET): no significant accumulation
[2]
  accumulation in pancreatic tumour (PET): no significant accumulation
